Tests used:
DAT = DAT (Rattus norvegicus, UniProt P23977); assay: Functional uptake profile, rat DAT; format: cell-based
5-HT = 5-HT (Rattus norvegicus, UniProt P31652); assay: Functional uptake profile, rat 5-HT; format: cell-based

Sequences of proteins named here, by UniProt entry; tags and fusion partners are left off.
UniProt P23977, whole entry: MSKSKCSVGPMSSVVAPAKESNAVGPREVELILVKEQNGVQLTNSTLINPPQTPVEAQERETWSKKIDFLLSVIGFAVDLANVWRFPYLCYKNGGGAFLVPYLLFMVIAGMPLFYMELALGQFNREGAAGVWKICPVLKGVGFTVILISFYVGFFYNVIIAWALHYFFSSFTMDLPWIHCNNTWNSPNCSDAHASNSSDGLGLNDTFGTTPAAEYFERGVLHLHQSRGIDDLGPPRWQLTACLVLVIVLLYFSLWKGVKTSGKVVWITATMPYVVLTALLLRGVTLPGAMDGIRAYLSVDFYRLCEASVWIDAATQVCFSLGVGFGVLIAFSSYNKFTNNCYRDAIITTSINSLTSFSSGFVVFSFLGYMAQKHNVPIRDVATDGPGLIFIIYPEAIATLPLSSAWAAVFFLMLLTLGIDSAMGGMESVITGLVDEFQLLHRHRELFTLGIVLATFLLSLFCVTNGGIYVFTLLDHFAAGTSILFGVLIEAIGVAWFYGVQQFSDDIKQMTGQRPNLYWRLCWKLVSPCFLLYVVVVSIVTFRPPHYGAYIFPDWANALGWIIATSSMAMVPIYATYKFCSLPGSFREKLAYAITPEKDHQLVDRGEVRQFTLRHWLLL
UniProt P31652, whole entry: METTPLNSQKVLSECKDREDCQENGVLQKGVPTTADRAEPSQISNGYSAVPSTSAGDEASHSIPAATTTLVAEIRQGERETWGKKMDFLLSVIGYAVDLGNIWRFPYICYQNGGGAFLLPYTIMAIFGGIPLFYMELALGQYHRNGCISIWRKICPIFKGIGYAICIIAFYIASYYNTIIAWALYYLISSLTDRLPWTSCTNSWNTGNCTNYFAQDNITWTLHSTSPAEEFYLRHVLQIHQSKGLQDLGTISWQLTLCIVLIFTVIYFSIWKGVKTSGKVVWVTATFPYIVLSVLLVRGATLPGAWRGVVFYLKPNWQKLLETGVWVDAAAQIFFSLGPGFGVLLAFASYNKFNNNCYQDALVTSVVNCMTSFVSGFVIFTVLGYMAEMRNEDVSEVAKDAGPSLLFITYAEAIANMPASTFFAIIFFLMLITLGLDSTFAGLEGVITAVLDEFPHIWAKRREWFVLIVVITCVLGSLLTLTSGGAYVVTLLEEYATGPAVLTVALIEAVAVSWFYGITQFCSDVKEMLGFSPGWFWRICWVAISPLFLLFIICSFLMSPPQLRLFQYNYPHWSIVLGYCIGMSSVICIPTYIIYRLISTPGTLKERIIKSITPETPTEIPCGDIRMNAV

Compound | EC50 (DAT) | EC50 (5-HT)
CC(C)C[C@@H](N)C1(c2ccc(Cl)cc2)CCC1 [R-DDMS] | 100 nM | 1500 nM
CN[C@H](CC(C)C)C1(c2ccc(Cl)cc2)CCC1 [R-DMS] | 70 nM | 1500 nM
